# The entries are a selection whose mix differs from that of the whole data set. The source made the active and inactive calls. No stated cut-off is given here; in the data, active means inhibition above about 25%; inactive means the rest.
# Protein sequences, listed by entry. Tags and fused reporters are not part of them. Residues count along the entry.
# UniProt P09958, 108-714 limits assumed: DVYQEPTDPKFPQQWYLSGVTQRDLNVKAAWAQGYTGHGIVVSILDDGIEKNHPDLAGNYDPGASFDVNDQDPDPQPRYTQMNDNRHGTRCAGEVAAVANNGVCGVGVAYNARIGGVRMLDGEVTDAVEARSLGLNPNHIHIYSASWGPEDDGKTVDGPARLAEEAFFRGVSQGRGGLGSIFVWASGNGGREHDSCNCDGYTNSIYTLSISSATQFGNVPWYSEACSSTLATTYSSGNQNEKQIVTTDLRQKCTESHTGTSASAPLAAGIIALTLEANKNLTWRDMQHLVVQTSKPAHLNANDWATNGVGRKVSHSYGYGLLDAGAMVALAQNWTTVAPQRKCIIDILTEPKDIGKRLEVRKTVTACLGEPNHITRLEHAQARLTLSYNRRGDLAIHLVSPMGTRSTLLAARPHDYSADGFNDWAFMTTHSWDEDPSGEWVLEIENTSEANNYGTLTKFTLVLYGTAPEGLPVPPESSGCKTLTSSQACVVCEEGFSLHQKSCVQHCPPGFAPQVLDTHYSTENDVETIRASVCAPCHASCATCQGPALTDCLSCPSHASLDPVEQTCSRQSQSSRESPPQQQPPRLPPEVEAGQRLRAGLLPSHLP
# Target: Furin (Homo sapiens) (UniProt P09958)
# Experiment: human furin inhibitors, primary screen, biochemical, fluorescence intensity (AID 463115)
# Conditions: purified furin, fluorogenic substrate cleavage, hits give high values; at 30 µM unless noted
row,Compound,inhibition
1,Cc1ccc(OCC(C)C)c(CN(CCCl)CCCl)c1,inactive: -21.4%
2,COc1ccc(NC2CCN(CCc3ccccc3)CC2)c(OC)c1,inactive: -25.9%
3,CCOc1ccc(C)cc1CN(CCCl)CCCl,inactive: -27.9%
4,CCOC(=O)N1CCC(Nc2ccc(OC)cc2)CC1,inactive: -21.2%
5,O=C(OC1CN2CCC1CC2)C1c2ccccc2Oc2ccccc21 (centres undefined),inactive: -11.3%
6,N#CC1(Nc2ccccc2)CCN(Cc2ccccc2)CC1,inactive: -24.3%
7,O=C(NCC1(N2CCOCC2)CCCCC1)c1cc2ccccc2o1,inactive: -12.9% [at 20 µM]
8,COc1ccc(C(=O)NCC2(N3CCCCC3)CCCCC2)c(OC)c1OC,inactive: 3.82%
9,CN1CCC(Nc2cccc(F)c2)CC1,inactive: -5.62% [at 20 µM]
10,COc1ccc(CN(CCCl)CCCl)cc1Cl,inactive: -23%
11,CN(C)c1cccc(C(=O)NCC2(N3CCCCC3)CCCCC2)c1,inactive: -18.9%
12,CC(C)c1ccc(NC2CCN(C(=O)OC(C)(C)C)CC2)cc1,inactive: -6.82%
13,CN1CCN(CCOC(=O)C(O)(c2ccccc2)c2ccccc2)CC1,inactive: 3.43%
14,COc1ccc(NC2CCN(C(=O)OC(C)(C)C)CC2)cc1,inactive: -18.1%
15,O=C(NCC1(N2CCOCC2)CCCCC1)c1cc(=O)[nH]c2ccccc12,inactive: -11.7% [at 20 µM]
16,O=C(NCC1(N2CCCCC2)CCCCC1)c1cccc([N+](=O)[O-])c1,inactive: -32.3%
17,N#CC1(Nc2ccccc2)CCN(CCc2ccccc2)CC1,inactive: -14.9%
18,c1ccc(CN2CCC(Nc3ccccc3)CC2)cc1,inactive: -18.1% [at 20 µM]
19,N#Cc1ccc(C(=O)NCC2(N3CCCCC3)CCCCC2)cc1,inactive: -15.4%
20,O=C(OC1CN2CCC1CC2)C1c2ccccc2C=Cc2ccccc21 (centres undefined),inactive: -5.42%
21,N/C(=N\O)c1c(N)no[n+]1[O-],inactive: -5.54%
22,COc1ccc(C(=O)NCC2(N3CCOCC3)CCCCC2)cc1OC,inactive: 7.14%
23,CCCOc1ccc(C)cc1CN(CCCl)CCCl,inactive: -32.3%
24,CCC(CO)(C(=O)OC1CN2CCC1CC2)c1ccccc1 (centres undefined),inactive: -15.1%
25,COc1cc(OC)cc(C(=O)NCC2(N3CCOCC3)CCCCC2)c1,inactive: -19%
26,CC(C)(C)OC(=O)N1CCC(Nc2ccccc2)CC1,inactive: -19.4%
27,CCOc1ncccc1C(=O)NCC1(N2CCOCC2)CCCCC1,inactive: -6.36%
28,CN(C)c1ccc(C(=O)NCC2(N3CCCCC3)CCCCC2)cc1,inactive: -28.4%
29,CCN1CCC(Nc2cccc(F)c2)CC1,inactive: -23.9%
